# Data reported in paper PMC4332989 (Cellular signalling, 2014).
# Amino acid sequences for entries named in this document (tags omitted).
# UniProt P47746, whole entry: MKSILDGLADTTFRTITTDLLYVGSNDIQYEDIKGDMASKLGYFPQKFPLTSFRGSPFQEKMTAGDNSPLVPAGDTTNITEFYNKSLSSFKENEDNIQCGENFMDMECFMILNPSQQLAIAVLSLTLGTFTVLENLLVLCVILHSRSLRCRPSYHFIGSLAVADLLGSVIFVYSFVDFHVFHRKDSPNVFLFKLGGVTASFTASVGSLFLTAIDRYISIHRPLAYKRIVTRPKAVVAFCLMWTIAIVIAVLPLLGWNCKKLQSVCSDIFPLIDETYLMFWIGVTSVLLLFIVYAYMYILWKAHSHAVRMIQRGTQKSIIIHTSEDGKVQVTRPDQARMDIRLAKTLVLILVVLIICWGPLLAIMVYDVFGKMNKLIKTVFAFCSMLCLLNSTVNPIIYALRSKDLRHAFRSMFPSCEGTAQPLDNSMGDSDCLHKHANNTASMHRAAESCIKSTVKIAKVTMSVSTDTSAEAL
# Legend:
# CB1R = CB1R (Mus musculus, UniProt P47746); assay type: cell-based; details: for change in basal phosphoERK1/2 levels: vs basal
# CB1R coupling to Gαi3 = CB1R coupling to Gαi3 (Mus musculus, UniProt P47746)
# CB1R coupling to Gαo = CB1R coupling to Gαo (Mus musculus, UniProt P47746)
# CB1R coupling to Gαi1 = CB1R coupling to Gαi1 (Mus musculus, UniProt P47746)
# CB1R coupling to Gαi2 = CB1R coupling to Gαi2 (Mus musculus, UniProt P47746)
# [1] = CRIP1a XS membranes, co-incubation with CP55940
compound,measurement,setting,value
"Cc1c(C(=O)NN2CCCCC2)nn(-c2ccc(Cl)cc2Cl)c1-c1ccc(Cl)cc1 [SR141716A, N-(piperidin-1-yl)-5-(4-chlorophenyl)-1-(2,4-dichlorophenyl)-4-methyl-1H-pyrazole-3-carboxamide]",SR141716A-reversible constitutive phosphoERK1/2 compared with WT and Control,"CB1R; CRIP1a KD cells, 10 nM, 5 min",enhancement
same,effect on CP55940-stimulated phosphoERK1/2,"CB1R; CRIP1a KD cells, 1 μM SR141716A",eliminated
same,effect on CP55940-stimulated phosphoERK1/2,"CB1R; CRIP1a XS cells, 1 μM SR141716A",completely blocked
same,effect on basal phosphoERK1/2 levels,"CB1R; CRIP1a XS clones, 10 nM",insensitive
same,change in basal phosphoERK1/2 levels,"CB1R; N18TG2 WT cells, 10 nM, 5 min",−17±4%
same,change in basal phosphoERK1/2 levels,"CB1R; N18TG2 empty vector Control cells, 10 nM, 5 min",−20±6%
same,effect on CP55940-stimulated phosphoERK1/2,"CB1R; WT and Control cells, concurrent 1 μM SR141716A",completely abolished
same,"inverse agonist response, Gαi3","CB1R coupling to Gαi3; CRIP1a KD membranes, 100 nM",54±7 % below basal
same,attenuation of the Gαi3 constitutive activation,"CB1R coupling to Gαi3; CRIP1a XS membranes, 100 nM",resistant
same,reversal of constitutive CB1R-mediated Gαi3 activation,"CB1R coupling to Gαi3; Control membranes, 100 nM, relative to basal",−43±8%
same,CP55940-stimulated [35S]GTPγS binding to Gαi3 during co-incubation with SR141716A,"CB1R coupling to Gαi3; WT and Control membranes, 100 nM CP55940 plus SR141716A",absent
same,reversal of constitutive CB1R-mediated Gαi3 activation,"CB1R coupling to Gαi3; WT membranes, 100 nM",−41±6 % relative to basal
same,decrease in constitutive binding of [35S]GTPγS to Gαo,"CB1R coupling to Gαo; CRIP1a KD membranes, 100 nM, alone",43±5 % below basal
same,inverse agonist response for Gαo,"CB1R coupling to Gαo; CRIP1a over-expression (XS) membranes, 100 nM, alone",attenuated
same,decrease in constitutive binding of [35S]GTPγS to Gαo,"CB1R coupling to Gαo; Control membranes, 100 nM, alone",17±13 % below basal
same,decrease in constitutive binding of [35S]GTPγS to Gαo,"CB1R coupling to Gαo; WT membranes, 100 nM, alone",30±5 % below basal
same,effect on CP55940-promoted coupling between Gαo and CB1R,"CB1R coupling to Gαo; all cell lines, co-incubation with 100 nM CP55940",attenuated
same,"SR141716A-reversable constitutive activity, Gαi1",CB1R coupling to Gαi1; 100 nM,No significant
same,effect on CP55940-stimulated [35S]GTPγS binding to Gαi1,CB1R coupling to Gαi1; [1],reversed
same,"SR141716A-reversable constitutive activity, Gαi2",CB1R coupling to Gαi2; 100 nM,No significant
same,effect on CP55940-stimulated [35S]GTPγS binding to Gαi2,CB1R coupling to Gαi2; [1],reversed

# Where two headings read alike, the source gives them in different places.
